According to patent US11530244B2, “Cyclic polypeptides for PCSK9 inhibition” (priority 2018, dated 2022):
pIC50: −log10 of the molar value.

Amino acid sequences for entries named in this document (tags omitted). Residues count along the entry.
UniProt Q8NBP7, 31-152 partner: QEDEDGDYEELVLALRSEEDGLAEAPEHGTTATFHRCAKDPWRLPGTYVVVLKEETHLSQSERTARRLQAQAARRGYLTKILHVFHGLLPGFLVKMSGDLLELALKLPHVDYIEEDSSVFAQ
UniProt Q8NBP7, 153-692: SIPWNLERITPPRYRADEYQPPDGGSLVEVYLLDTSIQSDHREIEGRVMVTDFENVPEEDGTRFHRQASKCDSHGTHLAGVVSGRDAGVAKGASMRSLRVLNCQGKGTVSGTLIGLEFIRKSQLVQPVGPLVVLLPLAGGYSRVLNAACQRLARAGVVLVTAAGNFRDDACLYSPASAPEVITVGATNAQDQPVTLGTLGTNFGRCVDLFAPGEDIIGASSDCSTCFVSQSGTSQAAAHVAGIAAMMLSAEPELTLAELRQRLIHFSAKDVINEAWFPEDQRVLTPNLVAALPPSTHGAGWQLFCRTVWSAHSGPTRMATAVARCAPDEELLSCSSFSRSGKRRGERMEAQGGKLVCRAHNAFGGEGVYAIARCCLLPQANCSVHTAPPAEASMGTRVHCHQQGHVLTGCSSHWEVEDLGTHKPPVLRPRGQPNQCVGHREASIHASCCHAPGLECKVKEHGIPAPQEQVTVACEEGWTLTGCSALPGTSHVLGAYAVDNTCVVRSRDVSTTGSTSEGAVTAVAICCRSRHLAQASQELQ

What was measured:
[1] = target: human PCSK9 / human LDLR EGFa domain interaction (Homo sapiens (Human), UniProt Q8NBP7); assay: TR-FRET assay of inhibition of the PCSK9-LDLR protein-protein interaction; assay type: binding
Experimental: A time-resolved fluorescence resonance energy (TR-FRET) assay was used to measure inhibition of the PCSK9-LDLR protein-protein interaction. Briefly, 20 nM avitag-biotinylated human PCSK9 was incubated with 20 nM his-tagged human LDLR EGFa domain in the presence of 5 nM LANCE Ulight Streptavidin (Perkin Elmer) and 5 nM europium-Anti-6×His (Perkin Elmer) for 2 hours covered at room temperature in buffer containing 50 mM HEPES, 150 mM NaCl, 5 mM CaCl2), 0.01% BSA and 0.01% Surfactant P20. Compounds were tested in dose-response and concentrations giving half-maximal inhibition calculated using a 4-parameter fit equation.

[2] = target: PCSK9 (Homo sapiens (Human), UniProt Q8NBP7); assay: PCSK9 Alexa FRET Standard assay (displacement of AlexaFluor647 tagged cyclic peptide Reagent A); assay type: binding
Experimental: A solution containing 1 nM biotinylated PCSK9+2.5 nM Lance Streptavidin Europium (Strep-Eu) was made in 50 mM HEPES pH 7.4, 0.15 M NaCl, 5 mM CaCl2), 0.01% BSA, and 0.01% Surfactant P20. A separate solution containing 40 nM of the AlexaFluor tagged cyclic peptide was made in the same buffer system. An Echo was used to transfer 0.750 ul of compound to an assay plate followed by the addition of 15 ul of PCSK9+Stept-Eu and 15 ul of AF peptide. The final assay volume was 30.750 ul containing 0.5 nM PCSK9, 1.25 nM Strep-Eu, and 20 nM AF cyclic peptide. The reaction was incubated at room temperature for at least two hours prior to fluorescence measurements using an Envision Multilabel Reader. IC50 values were determined by fitting data to a sigmoidal dose-response curve using nonlinear regression. Ki was then calculated from the IC50 and the KD of AF cyclic peptide. Counts (B-counts) of the europium-labeled PCSK9 were followed to observe if compounds were […]. A fall off of the B-counts likely indicated a false positive of inhibition. Data from this procedure was reported as “A=‘numerical value’ (nanomolar)”

Row | SMILES | pIC50 [1] | pIC50 [2]
1 | COc1ccc(C[C@@H]2NC(=O)[C@H]([C@@H](C)OC)NC(=O)[C@@H]3CC/C=C\COc4cccc(c4)C[C@H](NC(=O)[C@@H](C)NC(=O)[C@H](C)NC(=O)CCSCc4cccc(c4)CSCCNC(=O)[C@]4(C)CCCN4C2=O)C(=O)N[C@@H](Cc2c[nH]c4ccc(F)cc24)C(=O)N3C)cc1 [Compound 501] | 7.00 to 10.00 | 7.00 to 9.96
2 | COc1ccc(C[C@@H]2NC(=O)[C@H]([C@@H](C)OC)NC(=O)[C@@H]3CC/C=C/COc4cccc(c4)C[C@H](NC(=O)[C@@H](C)NC(=O)[C@H](C)NC(=O)CCSCc4cccc(c4)CSCCNC(=O)[C@]4(C)CCCN4C2=O)C(=O)N[C@@H](Cc2c[nH]c4ccc(F)cc24)C(=O)N3C)cc1 [Compound 503] | 7.00 to 10.00 | 7.00 to 9.96
3 | COc1ccc(C[C@@H]2NC(=O)[C@H]([C@@H](C)OC)NC(=O)[C@@H]3CCC/C=C/c4cccc(c4)C[C@H](NC(=O)[C@@H](C)NC(=O)[C@H](C)NC(=O)CCSCc4cccc(c4)CSCCNC(=O)[C@]4(C)CCCN4C2=O)C(=O)N[C@@H](Cc2c[nH]c4ccc(F)cc24)C(=O)N3C)cc1 [Compound 513] |  | 7.00 to 9.96
